Target: Recombinant human IDO (Homo sapiens, UniProt P14902)
Assay: Bridge-IT tryptophan fluorescence assay of human IDO-1 inhibition
Conditions: read-out: Bridge-it, recombinant human IDO 7.5 nM, L-tryptophan

Protein sequences, listed by entry. Tags and fused reporters are not part of them.
UniProt P14902, whole entry: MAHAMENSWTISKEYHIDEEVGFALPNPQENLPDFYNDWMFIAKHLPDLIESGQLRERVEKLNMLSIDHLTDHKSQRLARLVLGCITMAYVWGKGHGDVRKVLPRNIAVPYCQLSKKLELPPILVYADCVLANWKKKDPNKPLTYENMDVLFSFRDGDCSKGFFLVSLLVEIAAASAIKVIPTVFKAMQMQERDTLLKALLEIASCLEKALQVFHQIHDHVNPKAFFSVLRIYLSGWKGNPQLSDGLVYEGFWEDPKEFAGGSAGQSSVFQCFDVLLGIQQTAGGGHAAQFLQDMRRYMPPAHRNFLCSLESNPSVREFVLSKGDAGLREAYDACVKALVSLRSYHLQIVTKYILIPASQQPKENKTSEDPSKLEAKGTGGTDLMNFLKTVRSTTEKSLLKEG

IC50 | Compound
> 1000 nM | Fc1cc2c(cn1)-c1cncn1C2CCC1(F)CCCCC1 (single isomer, unassigned) [27a]
100 to 1000 nM | Fc1cc2c(cn1)-c1cncn1C2CCC1(F)CCCCC1 (single isomer, unassigned) [27b]
> 1000 nM | OC1CCC(C(O)CC2c3cc(F)ncc3-c3cncn32)CC1 (single isomer, unassigned)
